Experimental data from PMC2662380 (Journal of medicinal chemistry, 2008).

Test system: MDA-MB-231 human breast cancer cell line

CN[C@@H](C)C(=O)N[C@H]1Cc2ccccc2[C@H]2CCC[C@@H](C(=O)NC(c3ccccc3)c3ccccc3)N2C1=O [Compound 8]
times less potent than 5 in cell growth inhibition: 20 times
